Settings: qualitative statement, no method described

With chlorhexidine-cyclamate complex [CHC] the solubility in water was “largely insoluble in water”.

Reference: patent publication US12161743B2, “Chlorhexidine-cyclamate complexes and oral care compositions comprising the same” (Colgate-Palmolive Company, priority 2017, dated 2024)
